Experiments:
[1] = Ratio of drug uptake in striatum to blood in Sprague-Dawley rat at 25 to 35 uCi, iv after 5 mins postinjection by autoradiography; format: ADME, organism-based; conditions: in vivo
[2] = Ratio of drug uptake in striatum to blood in Sprague-Dawley rat at 25 to 35 uCi, iv after 30 mins postinjection by autoradiography; format: ADME, organism-based; conditions: in vivo, 0.5 h
[3] = Ratio of drug uptake in striatum to blood in Sprague-Dawley rat at 25 to 35 uCi, iv after 1 hr postinjection by autoradiography; format: ADME, organism-based; conditions: in vivo
[4] = Ratio of drug uptake in striatum to blood in Sprague-Dawley rat at 25 to 35 uCi, iv after 2 hrs postinjection by autoradiography; format: ADME, organism-based; conditions: in vivo
[5] = Ratio of drug uptake in striatum to cortex in Sprague-Dawley rat at 25 to 35 uCi, iv after 5 mins postinjection by autoradiography; format: ADME, organism-based; conditions: in vivo
[6] = Ratio of drug uptake in striatum to cortex in Sprague-Dawley rat at 25 to 35 uCi, iv after 30 mins postinjection by autoradiography; format: ADME, organism-based; conditions: in vivo, 0.5 h
[7] = Ratio of drug uptake in striatum to hippocampus in Sprague-Dawley rat at 25 to 35 uCi, iv after 30 mins postinjection by autoradiography; format: ADME, organism-based; conditions: in vivo, 0.5 h
[8] = Ratio of drug uptake in striatum to hippocampus in Sprague-Dawley rat at 25 to 35 uCi, iv after 1 hr postinjection by autoradiography; format: ADME, organism-based; conditions: in vivo
[9] = Ratio of drug uptake in striatum to hippocampus in Sprague-Dawley rat at 25 to 35 uCi, iv after 2 hrs postinjection by autoradiography; format: ADME, organism-based; conditions: in vivo
[10] = Ratio of drug uptake in striatum to cerebellum in Sprague-Dawley rat at 25 to 35 uCi, iv after 5 mins postinjection by autoradiography; format: ADME, organism-based; conditions: in vivo
[11] = Ratio of drug uptake in striatum to cerebellum in Sprague-Dawley rat at 25 to 35 uCi, iv after 30 mins postinjection by autoradiography; format: ADME, organism-based; conditions: in vivo, 0.5 h
[12] = Ratio of drug uptake in striatum to cerebellum in Sprague-Dawley rat at 25 to 35 uCi, iv after 1 hr postinjection by autoradiography; format: ADME, organism-based; conditions: in vivo
[13] = Ratio of drug uptake in striatum to cerebellum in Sprague-Dawley rat at 25 to 35 uCi, iv after 2 hrs postinjection by autoradiography; format: ADME, organism-based; conditions: in vivo
[14] = Ratio of drug uptake in striatum to total brain in Sprague-Dawley rat at 25 to 35 uCi, iv after 5 mins postinjection by autoradiography; format: ADME, organism-based; conditions: in vivo
[15] = Ratio of drug uptake in striatum to total brain in Sprague-Dawley rat at 25 to 35 uCi, iv after 30 mins postinjection by autoradiography; format: ADME, organism-based; conditions: in vivo, 0.5 h
[16] = Ratio of drug uptake in striatum to total brain in Sprague-Dawley rat at 25 to 35 uCi, iv after 1 hr postinjection by autoradiography; format: ADME, organism-based; conditions: in vivo
[17] = Ratio of drug uptake in striatum to total brain in Sprague-Dawley rat at 25 to 35 uCi, iv after 2 hrs postinjection by autoradiography; format: ADME, organism-based; conditions: in vivo
[18] = Ratio of drug uptake in striatum to cortex in Sprague-Dawley rat at 25 to 35 uCi, iv after 1 hr postinjection by autoradiography; format: ADME, organism-based; conditions: in vivo
[19] = Ratio of drug uptake in striatum to cortex in Sprague-Dawley rat at 25 to 35 uCi, iv after 2 hrs postinjection by autoradiography; format: ADME, organism-based; conditions: in vivo
[20] = Ratio of drug uptake in striatum to hippocampus in Sprague-Dawley rat at 25 to 35 uCi, iv after 5 mins postinjection by autoradiography; format: ADME, organism-based; conditions: in vivo
[21] = Ratio of drug uptake in striatum to cerebellum in iv dosed rhesus monkey after 2 hrs postinjection by microPET imaging analysis; format: ADME, organism-based, Macaca mulatta; conditions: in vivo

Compound: O=C(c1ccc([18F])cc1)C1CCN([C@@H]2Cc3ccccc3C[C@H]2O)CC1 (stereo in doubt; (+))
- Ratio [1]: 2.67
- Ratio [2]: 0.95
- Ratio [3]: 0.9
- Ratio [4]: 0.87
- Ratio [5]: 0.92
- Ratio [6]: 1.08
- Ratio [7]: 0.93
- Ratio [8]: 0.98
- Ratio [9]: 0.99
- Ratio [10]: 1.15
- Ratio [11]: 1.3
- Ratio [12]: 1.17
- Ratio [13]: 1.14
- Ratio [14]: 1.02
- Ratio [15]: 1.13
- Ratio [16]: 1.02
- Ratio [17]: 1.04
- Ratio [18]: 0.95
- Ratio [19]: 0.91
- Ratio [20]: 0.99

Compound: O=C(c1ccc([18F])cc1)C1CCN([C@@H]2Cc3ccccc3C[C@H]2O)CC1 (stereo in doubt; (-))
- Ratio [1]: 12.55
- Ratio [2]: 8.86
- Ratio [3]: 5.97
- Ratio [4]: 5.17
- Ratio [5]: 1
- Ratio [6]: 1.39
- Ratio [7]: 1.36
- Ratio [8]: 1.35
- Ratio [9]: 1.11
- Ratio [10]: 1.23
- Ratio [11]: 1.85
- Ratio [12]: 1.64
- Ratio [13]: 1.32
- Ratio [14]: 1.11
- Ratio [15]: 1.44
- Ratio [16]: 1.38
- Ratio [17]: 1.08
- Ratio [21]: 2.1
- Ratio [18]: 1.36
- Ratio [19]: 1.09
- Ratio [20]: 1.09

— ChEMBL document CHEMBL1140914, “Synthesis and in vitro and in vivo evaluation of 18F-labeled positron emission tomography (PET) ligands for imaging the vesicular acetylcholine transporter” (J Med Chem, 2009)
